Experimental data taken from BindingDB's records for doi:10.1016/0024-3205(84)90540-x (Schering-Plough, 1984).

Amino acid sequences for entries named in this document (tags omitted).
UniProt P61169, whole entry: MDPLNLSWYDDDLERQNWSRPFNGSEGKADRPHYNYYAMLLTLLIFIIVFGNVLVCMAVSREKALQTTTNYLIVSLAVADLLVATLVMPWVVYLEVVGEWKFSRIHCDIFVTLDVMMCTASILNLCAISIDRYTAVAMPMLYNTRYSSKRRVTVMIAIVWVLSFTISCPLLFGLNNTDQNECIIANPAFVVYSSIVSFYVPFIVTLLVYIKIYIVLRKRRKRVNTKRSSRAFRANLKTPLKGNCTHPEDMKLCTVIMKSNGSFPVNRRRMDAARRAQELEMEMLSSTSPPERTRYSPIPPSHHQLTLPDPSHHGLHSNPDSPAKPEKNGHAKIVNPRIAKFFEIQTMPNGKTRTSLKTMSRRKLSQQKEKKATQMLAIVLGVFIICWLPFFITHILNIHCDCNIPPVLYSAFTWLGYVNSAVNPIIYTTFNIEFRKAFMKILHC

Target: D(2) dopamine receptor (Rattus norvegicus, UniProt P61169)

## CN1CCc2cccc3c2[C@H]1Cc1ccc(O)c(O)c1-3 [APOKYN]
  Ki: 540 nM

## NCCc1c[nH]c2ccc(O)cc12 [[3H]-5-HT]
  Ki: 1660 nM
